This is an account of results in article PMC8298264, “Function of cofactor Akirin2 in the regulation of gene expression in model human neutrophil-like HL60 cells” (Bioscience Reports, 2021).

This test has as its system human HL60 cells. In words: SWATH-MS proteomics, differential protein representation, akirin2 KO vs WT HL60 cells. The format is cell-based. Particulars: akirin2 KO vs WT HL60 cells. As to the method:
Total proteins were extracted from WT and akirin2 KO HL60 cells using the AllPrep DNA/RNA/Protein Mini Kit (Qiagen) and protein concentration was determined using the BCA Protein Assay with BSA (Sigma–Aldrich) as standard. Protein extracts (150 µg per sample, n=3 biological replicates) from each WT and KO cells were trypsin digested using the FASP Protein Digestion Kit (Expedeon Ltd., Abcam, Cambridge, U.K.) and sequencing grade trypsin (Promega, Madison, WI, U.S.A.) following manufacturer’s recommendations. The resulting peptides were finally desalted on to OMIX Pipette tips C18 (Agilent Technologies, Santa Clara, CA, U.S.A.), dried down and stored at −20 °C until mass spectrometry analysis. […] Three micrograms of each protein digest from the three biological replicates of WT and akirin2 KO HL60 cells were used for the generation of the reference spectral ion library as part of the SWATH-MS analysis.
Peptides were eluted in a 120-min gradient from 5 to 30% solvent B in solvent A followed by 15-min gradient from 30 to 60% solvent B in solvent A (solvent A: 0.1% formic acid in water, solvent B: 0.1% formic acid in acetonitrile) and directly injected into the mass spectrometer for analysis. For IDA experiments, the mass spectrometer was set to scanning full spectra (350–1400 m/z) using 250 ms accumulation time per spectrum, followed by up to 50 MS/MS scans (100–1500 m/z). Candidate ions with a charge state between +2 and +5 counts per second above a minimum threshold of 100 were isolated for fragmentation. One MS/MS spectrum was collected for 100 ms, before adding those precursor ions to the exclusion list for 15 s (mass spectrometer operated by Analyst TF 1.6, AB Sciex). Dynamic background subtraction was turned off. MS/MS analyses were recorded in high-sensitivity mode with rolling collision energy on and a collision energy spread of 5. For SWATH quantitative analysis, six independent samples (three replicates from WT and akirin2 KO HL60 cells, 5 µg each) were subjected to the cyclic DIA of mass spectra using the SWATH variable windows calculator (V 1.0, AB Sciex) and the SWATH acquisition method editor (AB Sciex), similar to established methods. […] For these experiments, a 50-ms survey scan (350–1400 m/z) was acquired at the beginning of each cycle, and SWATH–MS/MS spectra were collected from 100–1500 m/z for 70 ms at high-sensitivity mode, resulting in a cycle time of 3.6 s. Collision energy for each window was determined according to the calculation for a charge +2 ion-centered upon the window with a collision energy spread of 15. […] The detected protein threshold was set at 0.05. […] Global normalization was performed according to the Total Area Sums (TAS) of all detected proteins in the samples. […]

The mark [1] stands for this setting: SWATH-MS, over-represented in KO.
Setting [2] is: KO vs WT, sheet "Under-represented in KO".

Turning to Albumin, under setting [1], the “Fold Change” value is on record as 7.56 and the “Log (Fold Change)” value is given as 0.8785.

On to sp¦Q9NZI8¦IF2B1_HUMAN, for which, under setting [2], the “Fold Change” value turned out to be 0.6208 and the “Log (Fold Change)” value is -0.2071.
